What is called IC50 is the concentration needed to halve the response being measured. Higher therefore signals weaker potency in that assay.

Protein sequences, listed by entry. Tags and fused reporters are not part of them. Residues count along the entry.
UniProt P06276, 29-602: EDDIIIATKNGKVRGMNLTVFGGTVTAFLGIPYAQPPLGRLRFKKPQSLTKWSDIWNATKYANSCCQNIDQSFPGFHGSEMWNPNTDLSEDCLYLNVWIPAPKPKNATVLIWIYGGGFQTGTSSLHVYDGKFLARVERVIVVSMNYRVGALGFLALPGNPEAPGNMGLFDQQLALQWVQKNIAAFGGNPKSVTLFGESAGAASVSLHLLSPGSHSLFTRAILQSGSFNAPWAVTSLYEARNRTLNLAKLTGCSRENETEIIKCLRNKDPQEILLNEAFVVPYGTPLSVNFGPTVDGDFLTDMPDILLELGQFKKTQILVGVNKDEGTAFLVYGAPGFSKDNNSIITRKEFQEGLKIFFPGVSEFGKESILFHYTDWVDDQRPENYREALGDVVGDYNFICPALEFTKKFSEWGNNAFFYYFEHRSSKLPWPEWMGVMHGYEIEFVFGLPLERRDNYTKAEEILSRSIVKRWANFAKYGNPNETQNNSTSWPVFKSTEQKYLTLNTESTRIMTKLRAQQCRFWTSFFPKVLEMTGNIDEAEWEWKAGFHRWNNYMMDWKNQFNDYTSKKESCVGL

The experiment concerns the target T1, BuChE (Homo sapiens, UniProt P06276).
T1 construct: BuChE (3.4 U/mg) was obtained from human plasma; from tissue; host or cells: human plasma
As to the kind of experiment: biochemical. As to the method:
To measure in vitro AChE/BuChE activity, modified Ellman's method[27–30] was performed using a 96-well plate reader (BioTek ELx808). AChE (0.5 U/mg) was extracted from rat cortex while BuChE (3.4 U/mg) was obtained from human plasma. Each well contained 50 μl potassium phosphate buffer (KH2PO4/K2HPO4, 0.1 M, pH 8.0), 25 μl test compounds and 25 μl enzyme. […] They were pre-incubated for 60 min at 37 °C, and then 125 μl 5,5′-dithiobis-2-nitrobenzoic acid (DNTB, 3 mM in buffer) was added. […] A control experiment was performed under the same condition without any inhibitor and the blank contained buffer, water, DTNB and substrate. The described method was also performed for BuChE bioassay.

As for `CC(C)NP(=O)(NC(C)C)OP(=O)(NC(C)C)NC(C)C` [Iso-OMPA, tetraisopropyl pyrophosphoramide, reference compound], the IC50 worked out at 5.78 µM.

The values above are taken from PMC6446070, “Discovery of novel isoflavone derivatives as AChE/BuChE dual-targeted inhibitors: synthesis, biological evaluation and molecular modelling” (Journal of Enzyme Inhibition and Medicinal Chemistry, 2017).
